Experimental data: patent US8895585B2, “Nicotinamide derivative or salt thereof” (FUJIFILM Corporation, priority 2010, dated 2014)

target: glutathione S-transferase (GST)-fused full-length human Syk protein (Homo sapiens, UniProt P43405); test: Syk enzyme assay; settings: read-out: IC50 of Syk-inhibitory activity, Test Example 1
Description: A glutathione S-transferase (GST)-fused full-length human Syk protein (Carna Biosciences), which had been generated using a Baculovirus expression system, was used in the Syk enzyme assay.
15 μl of a reaction solution (1.2 ng Syk, 20 mM HEPES, 10 mM MgCl2, 50 mM NaCl, 2 mM DTT, 0.05% BSA, pH 7.0) containing a Syk protein and a predetermined concentration of a test compound was shaken for 2 minutes, and it was then left at rest at room temperature for 13 minutes. Thereafter, 5 μl of Biotin-EDPDYEWPSA-NH2 (final concentration: 0.4 μM) serving as a substrate peptide and 5 μl of ATP (final concentration: 27 μM) were added to the reaction solution, and the obtained mixture was then shaken for 2 minutes. The reaction solution was further left at rest at room temperature for 40 minutes, so as to carry out an enzyme reaction.
Thereafter, 50 μl of a reaction termination solution [5 μg/ml Streptavidin, 0.18 μg/ml PT66-K, 30 mM HEPES (pH 7.0), 150 mM KF, 75 mM EDTA, 0.15% BSA, 0.075% Tween20], which contained Streptavidin-Xlent (Cisbio) and Mab PT66-K (Cisbio), was added to the reaction solution to terminate the enzyme reaction. At the same time, the reaction solution was left at rest at room temperature for 1 hour, so as to carry out an antigen-antibody reaction. Thereafter, using EnVision (PerkinElmer), the time-resolved fluorescence was measured at 615 nm and 665 nm, so that the phosphorylation of the substrate peptide was measured.
In addition, the following are standards for evaluating IC50 of Syk-inhibitory activity used in Table 21. • A: Up to 10 nM • B: 10 to 50 nM • C: 50 to 100 nM • D: 100 to 1000 nM The set of numbers (XYZ-xyz) given in each Example number column indicates the corresponding Example number (Example XYZ-xyz) in Table 21.

Compound	IC50 [nM]
NCCNc1nc(Nc2cccc(C(=O)N3CCOCC3)c2)c(C(N)=O)cc1F	100 to 1000
NCCNc1nc(Nc2cccc(C(F)(F)F)c2)c(C(N)=O)cc1F	100 to 1000
CC(=O)NCCC[C@@H](Nc1nc(Nc2cnc(C)c(C)c2)c(C(N)=O)cc1F)[C@H](C)N	50 to 100
NC(=O)c1cc(F)c(N[C@@H]2CCCC[C@@H]2N)nc1Nc1cncc(NC(=O)c2ccccc2)c1 (relative stereo)	< 10
NC(=O)c1cc(F)c(N[C@@H]2CCCC[C@@H]2N)nc1Nc1ccnc(C(=O)O)c1 (relative stereo)	50 to 100
NC(=O)c1cc(F)c(N[C@@H]2CCNC2)nc1Nc1ccc2ncccc2c1	50 to 100
CC(=O)Nc1cncc(Nc2nc(N[C@@H]3CCCC[C@@H]3N)c(F)cc2C(N)=O)c1	10 to 50
NC(=O)c1cc(F)c(N[C@@H]2CCCC[C@@H]2N)nc1Nc1cncc(NS(=O)(=O)c2ccccc2)c1	100 to 1000
NCCNc1nc(Nc2ccc3cn[nH]c3c2)c(C(N)=O)cc1F	50 to 100
NC(=O)c1cc(F)c(NC2CCCC[C@@H]2N)nc1Nc1ccc2c(c1)CCC2 (stereo partly drawn)	< 10
NC(=O)c1cc(F)c(N[C@@H]2CCCC[C@@H]2N)nc1Nc1cncc(N)c1	< 10
NC(=O)c1cc(F)c(N[C@@H]2CCCC[C@@H]2N)nc1Nc1cncc(NC=O)c1	< 10
CS(=O)(=O)c1cccc(Nc2nc(NCCN)c(F)cc2C(N)=O)c1	100 to 1000
NC(=O)c1cc(F)c(N[C@@H]2CCCC[C@@H]2N)nc1Nc1ccc(OCCN2CCCC2)cc1 (relative stereo)	10 to 50
NC(=O)c1cc(F)c(N[C@@H]2CCCC[C@@H]2N)nc1Nc1ccc(NCCN2CCCC2)nc1	10 to 50
NCCNc1nc(Nc2ccc(F)c(Cl)c2)c(C(N)=O)cc1F	100 to 1000
NCCNc1nc(Nc2cccc(-c3ccccc3)c2)c(C(N)=O)cc1F	50 to 100
NCCNc1nc(Nc2cccc(CO)c2)c(C(N)=O)cc1F	100 to 1000

The remaining lines, values ahead:

IC50 [nM]	Compound
< 10	NC(=O)c1cc(F)c(N[C@@H]2CCCC[C@@H]2N)nc1Nc1ccc2nsnc2c1 (relative stereo)
10 to 50	NC(=O)c1cc(F)c(N[C@@H]2CCCC[C@@H]2N)nc1Nc1ccc(N2CCOCC2)nc1
50 to 100	NC(=O)c1cc(F)c(N[C@@H]2CCCC[C@@H]2N)nc1Nc1cnc2ccccn12 (relative stereo)
10 to 50	Cc1ccc(-c2cccc(Nc3nc(NCCN)c(F)cc3C(N)=O)c2)cc1
100 to 1000	Cn1cc2ccc(Nc3nc(NCCN)c(F)cc3C(N)=O)cc2n1
100 to 1000	CN1CCN(C(=O)c2cccc(Nc3nc(NCCN)c(F)cc3C(N)=O)c2)CC1
< 10	COc1cc(Nc2nc(N[C@@H]3CCCC[C@@H]3N)c(F)cc2C(N)=O)cc(OC)n1 [Example 006-114, 6-(((1R,2S)-2-aminocyclohexyl)amino)-2-((2,6-dimethoxypyridin-4-yl)amino)-5-fluoronicotinamide]
< 10	NC(=O)c1cc(F)c(N[C@@H]2CCCC[C@@H]2N)nc1Nc1ccnc(N2CCCCC2)c1
10 to 50	NC(=O)c1cc(F)c(N[C@@H]2CCCC[C@@H]2N)nc1Nc1ccc2nn(Cc3ccccc3)cc2c1 (relative stereo)
50 to 100	NCCNc1nc(Nc2cccc(C(N)=O)c2)c(C(N)=O)cc1F
< 10	NC(=O)c1cc(F)c(N[C@@H]2CCCC[C@@H]2N)nc1Nc1ccc2nn(CCN3CCOCC3)cc2c1
100 to 1000	COc1cc(Nc2nc(NCCCCN)c(F)cc2C(N)=O)cc(OC)c1
100 to 1000	Cc1nc2cc(Nc3nc(NCCN)c(F)cc3C(N)=O)ccc2o1
< 10	NC(=O)c1cc(F)c(N[C@@H]2CCCC[C@@H]2N)nc1Nc1cccc(-c2ccccc2)c1 (relative stereo)
10 to 50	NC(=O)c1cc(F)c(N[C@@H]2CCCC[C@@H]2N)nc1Nc1ccc(-c2ccccc2)nc1 (relative stereo) [Example 2-9, 6-(cis-2-aminocyclohexylamino)-5-fluoro-2-((6-phenylpyridin-3-yl)amino)nicotinamide]
< 10	NC(=O)c1cc(F)c(N[C@@H]2CCCC[C@@H]2N)nc1Nc1cccc(OCCN2CCCC2)c1 (relative stereo)
100 to 1000	COc1cc(Nc2nc(N[C@H](C(N)=O)C(C)(C)C)c(F)cc2C(N)=O)cc(OC)c1
< 10	NC(=O)c1cc(F)c(N[C@@H]2CCCC[C@@H]2N)nc1Nc1ccc2ccncc2c1 (relative stereo)
10 to 50	NC(=O)c1cc(F)c(N[C@@H]2CCCC[C@@H]2N)nc1Nc1ccnc2c1ccn2CC(=O)O (relative stereo)
100 to 1000	N#Cc1cccc(Nc2nc(NCCN)c(F)cc2C(N)=O)c1
< 10	CN1CCN(c2cc(Nc3nc(N[C@@H]4CCCC[C@@H]4N)c(F)cc3C(N)=O)ccn2)CC1
100 to 1000	COc1cc(Nc2nc(N[C@H]3CCCC[C@H]3N)c(F)cc2C(N)=O)cc(OC)c1
10 to 50	NC(=O)c1cc(F)c(N[C@@H]2CCCC[C@@H]2N)nc1Nc1cccc2cccnc12 (relative stereo)
< 10	NC(=O)c1cc(F)c(N[C@@H]2CCCC[C@@H]2N)nc1Nc1ccc2cn(CCN3CCOCC3)nc2c1
100 to 1000	CC(=O)c1ccccc1Nc1nc(N[C@@H]2CCCC[C@@H]2N)c(F)cc1C(N)=O
10 to 50	NC(=O)c1cc(F)c(N[C@@H]2CCCC[C@@H]2N)nc1Nc1ccnc(N2CCCC2)c1 (relative stereo)
< 10	Cc1cccc(Nc2nc(N[C@@H]3CCCC[C@@H]3N)c(F)cc2C(N)=O)c1 (relative stereo) [Example 2-3, 6-(cis-2-aminocyclohexylamino)-5-fluoro-2-((3-methyl-phenyl)amino)nicotinamide]
50 to 100	NCCNc1nc(Nc2cccc3ccccc23)c(C(N)=O)cc1F

same assay, conditions: read-out: IC50 of Syk-inhibitory activity, Test Example 1, tested form: 2HCl

IC50 [nM]	Compound
10 to 50	NC(=O)c1cc(F)c(N[C@@H]2CCCC[C@@H]2N)nc1Nc1ccnc(OCCN2CCCC2)c1 (relative stereo)

same assay, conditions: read-out: IC50 of Syk-inhibitory activity, Test Example 1, tested form: HCl

Compound	IC50 [nM]
Cc1cccc(Nc2nc(NCCN)c(F)cc2C(N)=O)c1 [Example 6-2, 6-((2-aminoethyl)amino)-5-fluoro-2-(3-methylphenylamino)nico-tinamide]	100 to 1000
Cc1ccc(C(=O)Nc2cncc(Nc3nc(N[C@@H]4CCCC[C@@H]4N)c(F)cc3C(N)=O)c2)cc1 (relative stereo)	10 to 50
COc1cc(Nc2nc(N[C@@H]3CCCC[C@H]3N)c(F)cc2C(N)=O)cc(OC)c1	50 to 100
NC(=O)c1cc(F)c(N[C@@H]2CCCC[C@@H]2N)nc1Nc1cncc(C(=O)O)c1 (relative stereo)	50 to 100
COc1ccc(Nc2nc(N[C@@H]3CCCC[C@@H]3N)c(F)cc2C(N)=O)c2cccnc12 (relative stereo)	50 to 100
COCCOc1cc(Nc2nc(N[C@@H]3CCCC[C@@H]3N)c(F)cc2C(N)=O)cc(-c2ccccc2)n1 (relative stereo)	10 to 50
NC(=O)c1cc(F)c(N[C@@H]2CCCC[C@@H]2N)nc1Nc1cncc(NC(=O)c2ccccc2F)c1 (relative stereo)	10 to 50
CCCCOc1ccc(C(=O)Nc2cncc(Nc3nc(N[C@@H]4CCCC[C@@H]4N)c(F)cc3C(N)=O)c2)cc1 (relative stereo)	100 to 1000
NC(=O)c1cncc(Nc2nc(N[C@@H]3CCCC[C@@H]3N)c(F)cc2C(N)=O)c1 (relative stereo)	10 to 50

The remaining lines, values ahead:

IC50 [nM]	Compound
100 to 1000	COCCN(CCOC)c1ccc(Nc2nc(N[C@@H]3CCCC[C@@H]3N)c(F)cc2C(N)=O)cn1 (relative stereo)
100 to 1000	COc1cc(Nc2nc(NC3CCC(N)CC3)c(F)cc2C(N)=O)cc(OC)c1 (stereo not drawn)
100 to 1000	CC(=O)Nc1cccc(Nc2nc(NCCN)c(F)cc2C(N)=O)c1 [Example 6-24, 2-((3-acetylaminophenyl)amino)-6-((2-aminoethyl)amino)-5-fluoronicotinamide]
10 to 50	COc1ccc(C(=O)Nc2cncc(Nc3nc(N[C@@H]4CCCC[C@@H]4N)c(F)cc3C(N)=O)c2)cc1 (relative stereo)
10 to 50	NC(=O)c1cc(F)c(N[C@@H]2CCCC[C@@H]2N)nc1Nc1cncc(NC(=O)c2ccc(F)cc2)c1 (relative stereo)
10 to 50	Cc1nc2cc(Nc3nc(N[C@@H]4CCCC[C@@H]4N)c(F)cc3C(N)=O)ccc2o1 (relative stereo)
10 to 50	Cc1nc2ccc(Nc3nc(NCCN)c(F)cc3C(N)=O)cc2o1 [Example 6-23, 6-((2-aminoethyl)amino)-5-fluoro-2-((2-methylbenzo[d]oxazol-6-yl)amino)nicotinamide]
100 to 1000	NC(=O)c1cc(F)c(N[C@@H]2CCCC[C@@H]2N)nc1Nc1ccc(N2C(=O)COc3ccccc32)nc1 (relative stereo)
50 to 100	NC(=O)c1cc(F)c(N[C@@H]2CCCC[C@@H]2N)nc1Nc1cncc(NC(=O)c2ccc(C(F)(F)F)cc2)c1 (relative stereo)

same assay, conditions: read-out: IC50 of Syk-inhibitory activity, Test Example 1, tested form: free

IC50 [nM]	Compound
100 to 1000	CC(C)C[C@@H](Nc1nc(Nc2ccc3ncccc3c2)c(C(N)=O)cc1F)c1cnn[nH]1
